Source: article PMC11943675, “Studies of Piper auritum Kuntz’s Mutagenic and Antimutagenic Properties Using the Ames Test” (Metabolites, 2025)

Test system: S. typhimurium TA98
Experiment: Antimutagenic assay against BaP (TA98 strain with metabolic activation)
Format: cell-based, Salmonella typhimurium
Conditions: TA98 +S9, BaP 10 µg/plate; 1000 µg/plate
Experimental: The antimutagenic assay was performed as previously described; however, in this case, we only used strain TA98, and the test compound in the Salmonella culture was BaP (10 µg/plate) plus the S9 fraction.
The toxicity of the tested agents was assessed by observing background bacterial growth on minimal agar plates due to traces of histidine in the medium.

## C=CCc1ccc2c(c1)OCO2 [safrole, 5-(2-propenyl)-1,3-benzodioxone]
  inhibitory capacity relative to the effect of BaP: 65%
